This is an account of results in ChEMBL document CHEMBL2046406 (J Med Chem, 2012).

Amino acid sequences for entries named in this document (tags omitted). A change or cut given only in a name is not applied to a line headed by its entry.
UniProt P41145: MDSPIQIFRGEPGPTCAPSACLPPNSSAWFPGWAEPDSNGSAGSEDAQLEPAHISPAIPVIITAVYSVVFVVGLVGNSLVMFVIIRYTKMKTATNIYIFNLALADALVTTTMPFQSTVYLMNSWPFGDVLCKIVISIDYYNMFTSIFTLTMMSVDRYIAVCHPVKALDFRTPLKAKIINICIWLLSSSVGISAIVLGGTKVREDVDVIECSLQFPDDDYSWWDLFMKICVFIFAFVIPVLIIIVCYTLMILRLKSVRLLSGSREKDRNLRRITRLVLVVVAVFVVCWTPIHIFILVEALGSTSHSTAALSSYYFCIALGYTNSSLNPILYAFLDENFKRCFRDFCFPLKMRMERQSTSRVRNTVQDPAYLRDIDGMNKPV

The target in this test is Kappa-type opioid receptor (Homo sapiens, UniProt P41145). The experiment in a line: Agonist activity at human kappa opioid receptor expressed in CHO cells assessed as stimulation of […]GTPgammaS binding after 60 mins by scintillation counting relative to control. Format: functional, cell-based. The method in brief: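 Membranes from CHO cells stably expressing human KOR (15 μg protein per tube) or MOR (7.5 μg protein per tube). Nonspecific binding with 10 μM GTPγS. Filtration, then scintillation counting. Triplicate, at least three experiments.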
Background: GTPγS is a poorly hydrolysed GTP analogue; its binding reports G protein activation.

What is called Emax is the maximal effect, on the per cent scale that the assay sets. As to `CN(C(=O)Cc1ccc(Cl)c(Cl)c1)C1CCCCC1N1CCCC1` (stereo unspecified), the Emax is 140%.
